Here are results for two compounds from PubChem BioAssay AID743266 (National Center for Advancing Translational Sciences (NCATS), 2014).

Chains of the proteins cited; added tags and fusions are not shown.
UniProt Q03431, whole entry: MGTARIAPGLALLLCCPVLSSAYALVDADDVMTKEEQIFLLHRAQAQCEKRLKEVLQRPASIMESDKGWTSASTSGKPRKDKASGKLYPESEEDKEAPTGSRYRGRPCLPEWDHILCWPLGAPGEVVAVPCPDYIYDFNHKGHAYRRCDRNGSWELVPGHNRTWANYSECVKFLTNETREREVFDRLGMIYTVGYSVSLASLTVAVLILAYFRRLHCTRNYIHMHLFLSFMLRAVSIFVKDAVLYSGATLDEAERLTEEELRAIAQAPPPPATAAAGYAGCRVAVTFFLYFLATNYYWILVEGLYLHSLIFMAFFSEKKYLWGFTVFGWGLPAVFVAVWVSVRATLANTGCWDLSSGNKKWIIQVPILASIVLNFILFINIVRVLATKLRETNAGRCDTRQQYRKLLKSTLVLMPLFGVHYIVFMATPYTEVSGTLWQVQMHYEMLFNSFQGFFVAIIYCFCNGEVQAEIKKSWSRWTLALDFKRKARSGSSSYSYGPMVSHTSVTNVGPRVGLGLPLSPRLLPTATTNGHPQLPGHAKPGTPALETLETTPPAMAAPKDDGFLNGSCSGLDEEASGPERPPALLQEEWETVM

The entries are a selection whose mix differs from that of the whole data set. Active and inactive are the calls of the source. Calls come from the whole dose curve; as a rule, active = well fitted activation curve with a large enough effect; inconclusive = small, poorly fitted or top-dose-only effect, or another doubt; inactive = no such curve, though single readings can be large or run the other way.

The target in the test is Parathyroid hormone/parathyroid hormone-related peptide receptor (Homo sapiens) (UniProt Q03431). The test is described as follows: qHTS for PTHR1 Agonists: Primary Screen. Note: nearly all actives have a fitted effect of over 55% in size. Particulars: HEK293 GP2 PTHR1 cells, GloSensor cAMP luminescence, 1 h; at 115 µM (top of the series).
As to `CCC(=O)N(c1ccccc1)C1(COC)CCN(CCc2cccs2)CC1`, the call was inactive.
In the case of `CCC(=O)N(c1ccccc1)C1(COC)CCN(CCn2nnn(CC)c2=O)CC1`, the outcome was inactive.
